This is an account of results in US20250353867A1, “Substituted Pyridine-2,6-Bis(Phenylenephenolate) Complexes with Enhanced Solubility that are Useful as Catalyst Components for Olefin Polymerization” (EXXONMOBIL CHEMICAL PATENTS INC., priority 2022, published 2025).

The nature of this data set: Solubility of complexes in isohexane at room temperature. The data set is classed as physicochemical. Particulars: room temperature (20° C.-25° C.); for Solubility in isohexane: cocrystallized solvent included in formula weight; for Solubility in isohexane (wt %): cocrystallized solvent included in mass. How it is done: General considerations: Solubility studies were performed using complexes that were isolated as crystalline or microcrystalline solids. […] Complex 3, embodying the present technological advancement, was cocrystallized with 0.6 equivalents of isohexane. Complex 4, embodying the present technological advancement, was cocrystallized with 0.5 equivalents of isohexane. Solvents used were sparged with nitrogen (30-60 minutes) and dried over 3 angstrom molecular sieves. Unless stated otherwise all measurements were performed at ambient temperature (20° C.-25° C.).
General procedure: A tared vial was loaded with a small amount of the complex (actual mass recorded, typically 5-30 mg). Then a small stir bar (8 mm) was added. Solvent was then added and the mixture was stirred rapidly (1000 rpm). […] This process was repeated until either a clear solution was obtained (no visible solids or murkiness) or the vial was full. As the mixture approached homogeneity (i.e., few remaining solids observed) the volume of the solvent additions was kept small (<1 mL) to minimize the overshooting of the solvent required to achieve homogeneity. The stir bar was then removed and the mass of the mixture was measured. If a clear solution had formed then the solubility of the complex was calculated based on the mass of complex and the amount of solvent added to achieve a homogeneous solution. If the mixture remained heterogeneous (visible solids or murky), then the value reported is given as being “less than” the calculated value. Formulas used to calculate solubility are listed below. Cocrystallized solvent is included in the mass and formula weights of the complexes. The density of isohexane used in the calculations was 0.672 g/ml, and the density of the complex was assumed to be 1.0 g/ml.
Solubility (in wt %)=[100]*[(weight of complex)/(weight of solution)]
Solubility (in mM)=[10^6]*[(grams of complex)/(formula wt. of complex in g/mol)]/[(grams of solvent)/(density of solvent in g/mL)]

As to “dimethylzirconium[2′,2′″-(pyridine-2,6-diyl)bis(3-adamantan-1-yl)-5-methyl-[1,1′-biphenyl]-2-olate)] [Complex 1, reference compound]”, the “Solubility in isohexane” value was below 600 µM and the “Solubility in isohexane (wt %)” value was below 0.08 wt %.

As for “dimethylzirconium[2′,2′″-(pyridine-2,6-diyl)bis(3-adamantan-1-yl)-5-(tert-butyl)-[1,1′-biphenyl]-2-olate)] [Complex 2, reference compound]”, the “Solubility in isohexane” value was 520 µM and the “Solubility in isohexane (wt %)” value amounted to 0.081 wt %.
